Literature values as cited in patent US9707318B2, “Compositions of novel bone patch in bone and vascular regeneration” (priority 2009, dated 2017).

Test system: spine fusion

BMP-2: BMP-2 (Infuse), bone morphogenetic protein used in spine fusion studies
fusion rate (131 patients (79 BMP-2, 52 ICBG), follow-up minimum 24 months, p less than 0.001): 96%
SF-36 physical component score and low-back and leg pain score (according to the Oswestry Disability Index): showed improvement
blood loss (in vivo): less blood loss
